We go through two substances from patent US8008303B2, “Biphenyl derivatives and their use in treating hepatitis C” (AstraZeneca AB, priority 2005, dated 2011).

For the series, the system named is HCV replicon cells Huh 9B. It counts as cell-based. The protocol: HCV replicon cells Huh 9B (ReBlikon), containing the firefly luciferase-ubiquitin-neomycin phosphotransferase fusion protein and EMCV-IRES driven HCV polyprotein with cell culture adaptive mutations.
A flask of cells was trypsinised and a cell count carried out. […] Wells G12 and H12 were left empty in the clear plate as the blank. Plates were then incubated at 37° C. in a 5% CO2 environment for 24 h.
On the following day compound dilutions are made up in medium at twice their desired final concentration in a clear round bottomed plate. All dilutions have a final DMSO concentration of 1%.
Exception: no compound was added to wells A1 and A2 of either plate and 100 μl of 1% DMSO was added to these instead. Plates were then incubated at 37° C. with 5% CO2 for 72 h.
The clear plate was stained with 100 μl 0.5% methylene blue in 50% ethanol at room temperature for 1 h, followed by solvation of the absorbed methylene blue in 100 μl per well of 1% lauroylsarcosine. Absorbance of the plate was measured on a microplate spectrophotometer (Molecular Devices) and the absorbance for each concentration of compound expressed as a proportion of the relative DMSO control.

Read-outs that look alike come from different tables or passages of the source.

As for “6-Methyl-biphenyl-3,4′-dicarboxylic acid 4′-[(1H-indol-6-yl)-amide] 3-[(4-morpholin-4-yl-phenyl)-amide] [Example 44]”, the TD50 result (concentration reducing total cell area by 50% relative to DMSO controls, methylene blue, absorbance 620 nm, 72 h incubation) is recorded as “* (* < 50 μM)”. With “6-Methoxy-biphenyl-3,4′-dicarboxylic acid 4′-{[4-(1,1-dioxo-1lambda*6*-thiomorpholin-4-ylmethyl)-phenyl]-amide} 4′{[4-(4-methanesulfonyl-piperazin-1-ylmethyl)-phenyl]-amide} [Example 262]”, the TD50 entry is on record as “* (key: * < 50 μM; ** > 50 μM)”.
